{
  "sequences": {"note": "By UniProt entry, the sequences of proteins in these tests, tags left out. Residues count along the entry.", "UniProt Q63380, 1-617": "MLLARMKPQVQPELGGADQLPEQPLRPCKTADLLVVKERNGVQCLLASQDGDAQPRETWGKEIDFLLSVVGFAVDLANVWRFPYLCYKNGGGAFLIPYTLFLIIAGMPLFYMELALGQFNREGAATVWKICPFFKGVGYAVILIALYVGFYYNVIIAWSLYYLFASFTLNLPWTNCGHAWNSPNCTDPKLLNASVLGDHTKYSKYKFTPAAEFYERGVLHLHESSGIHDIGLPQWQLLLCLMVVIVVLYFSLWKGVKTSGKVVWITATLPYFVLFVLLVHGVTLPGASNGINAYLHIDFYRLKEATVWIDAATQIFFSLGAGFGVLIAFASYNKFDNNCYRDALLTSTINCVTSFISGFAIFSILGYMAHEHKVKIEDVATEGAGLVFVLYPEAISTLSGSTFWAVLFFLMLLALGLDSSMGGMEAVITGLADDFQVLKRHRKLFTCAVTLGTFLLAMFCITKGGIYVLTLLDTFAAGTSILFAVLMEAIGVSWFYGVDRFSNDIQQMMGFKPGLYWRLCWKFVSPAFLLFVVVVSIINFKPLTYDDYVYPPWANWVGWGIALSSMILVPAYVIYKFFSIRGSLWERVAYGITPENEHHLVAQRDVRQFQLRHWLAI"},
  "source": "paper PMC7248194",
  "about": "“Cell-Based Radiotracer Binding and Uptake Inhibition Assays: A Comparison of In Vitro Methods to Assess the Potency of Drugs That Target Monoamine Transporters” (Frontiers in Pharmacology, 2020)",
  "key": {"rNET": {"target": "T1, rNET (Rattus norvegicus, UniProt Q63380)", "T1 construct": "gene Slc6a2; full-length, stably expressed in HEK 293 cells (Vienna, 'cell line 3')", "experiment": "inhibition of [3H]-MPP+ uptake, adherent HEK […] cells", "format": "cell-based"}, "rSERT": {"target": "T2, rSERT (Rattus norvegicus, UniProt P31652)", "T2 construct": "gene Slc6a4; full-length, stably expressed in HEK 293 cells (Vienna, 'cell line 3')", "experiment": "inhibition of [3H]-5-HT uptake, adherent HEK […] cells", "format": "cell-based"}},
  "data": [
    {"compound": "COC(=O)[C@H]1[C@@H](OC(=O)c2ccccc2)C[C@@H]2CC[C@H]1N2C", "note": "[Cocaine]", "values": [
      {"measurement": "IC50", "setting": "rNET", "value": "2.4 ± 2", "unit": "µM"},
      {"measurement": "IC50", "setting": "rSERT", "value": "4.3 ± 2.1", "unit": "µM"}
    ]}
  ]
}
